Assay [1] concerns the target His-tagged soluble recombinant human IGF-IR (srhIGF-1R-his; R&D systems) (human), P08069. The experiment in a line: AlphaScreen competition with biotinylated hIGF-1 on srhIGF-1R-his. In general terms: Alpha assays give light when donor and acceptor beads are brought close together.
The target in assay [2] is human insulin-like growth factor-1 receptor (HIGF-1R) (human) (UniProt P08069). In words: 125I-IGF-1 displacement, SPA-assay.
The target of assay [3] is His-tagged soluble recombinant human IGF-IR (srhIGF-1R-his; R&D systems) (human) (UniProt P08069). In words: AlphaScreen competition with biotinylated hIGF-1 on srhIGF-1R-his.
Assay [4] addresses Human IGF-1R (HIGF-1R), purified from BHK cells stably transfected with IGF-1R cDNA (human) (UniProt P08069). In words: competition with 125I-IGF-1 on purified HIGF-1R (IGF-1 displacement).

Chains of the proteins cited; added tags and fusions are not shown. Residues count along the entry.
UniProt P08069, 31-935: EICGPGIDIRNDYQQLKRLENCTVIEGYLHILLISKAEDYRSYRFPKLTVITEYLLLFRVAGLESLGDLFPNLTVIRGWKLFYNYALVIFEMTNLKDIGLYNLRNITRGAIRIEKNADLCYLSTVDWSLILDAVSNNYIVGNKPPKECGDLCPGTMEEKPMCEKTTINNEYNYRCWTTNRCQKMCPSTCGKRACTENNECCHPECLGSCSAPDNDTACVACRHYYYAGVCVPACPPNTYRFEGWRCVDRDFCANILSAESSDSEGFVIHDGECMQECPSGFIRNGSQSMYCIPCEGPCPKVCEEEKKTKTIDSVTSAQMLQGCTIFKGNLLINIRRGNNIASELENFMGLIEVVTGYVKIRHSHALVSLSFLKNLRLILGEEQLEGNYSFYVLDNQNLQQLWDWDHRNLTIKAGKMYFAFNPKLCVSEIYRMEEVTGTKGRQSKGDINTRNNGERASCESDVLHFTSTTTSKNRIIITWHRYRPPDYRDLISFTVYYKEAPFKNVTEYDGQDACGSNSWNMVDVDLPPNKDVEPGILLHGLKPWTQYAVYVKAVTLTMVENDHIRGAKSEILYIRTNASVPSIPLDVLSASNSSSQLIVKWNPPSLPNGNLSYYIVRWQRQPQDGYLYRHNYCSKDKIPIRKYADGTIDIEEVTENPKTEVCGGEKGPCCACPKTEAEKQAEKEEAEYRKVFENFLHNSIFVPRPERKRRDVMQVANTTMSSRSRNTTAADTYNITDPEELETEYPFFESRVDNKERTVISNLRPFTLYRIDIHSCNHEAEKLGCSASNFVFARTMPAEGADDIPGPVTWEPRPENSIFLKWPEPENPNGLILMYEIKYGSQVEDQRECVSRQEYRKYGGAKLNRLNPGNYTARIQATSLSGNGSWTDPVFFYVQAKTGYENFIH
UniProt P08069, 31-1367 limits assumed: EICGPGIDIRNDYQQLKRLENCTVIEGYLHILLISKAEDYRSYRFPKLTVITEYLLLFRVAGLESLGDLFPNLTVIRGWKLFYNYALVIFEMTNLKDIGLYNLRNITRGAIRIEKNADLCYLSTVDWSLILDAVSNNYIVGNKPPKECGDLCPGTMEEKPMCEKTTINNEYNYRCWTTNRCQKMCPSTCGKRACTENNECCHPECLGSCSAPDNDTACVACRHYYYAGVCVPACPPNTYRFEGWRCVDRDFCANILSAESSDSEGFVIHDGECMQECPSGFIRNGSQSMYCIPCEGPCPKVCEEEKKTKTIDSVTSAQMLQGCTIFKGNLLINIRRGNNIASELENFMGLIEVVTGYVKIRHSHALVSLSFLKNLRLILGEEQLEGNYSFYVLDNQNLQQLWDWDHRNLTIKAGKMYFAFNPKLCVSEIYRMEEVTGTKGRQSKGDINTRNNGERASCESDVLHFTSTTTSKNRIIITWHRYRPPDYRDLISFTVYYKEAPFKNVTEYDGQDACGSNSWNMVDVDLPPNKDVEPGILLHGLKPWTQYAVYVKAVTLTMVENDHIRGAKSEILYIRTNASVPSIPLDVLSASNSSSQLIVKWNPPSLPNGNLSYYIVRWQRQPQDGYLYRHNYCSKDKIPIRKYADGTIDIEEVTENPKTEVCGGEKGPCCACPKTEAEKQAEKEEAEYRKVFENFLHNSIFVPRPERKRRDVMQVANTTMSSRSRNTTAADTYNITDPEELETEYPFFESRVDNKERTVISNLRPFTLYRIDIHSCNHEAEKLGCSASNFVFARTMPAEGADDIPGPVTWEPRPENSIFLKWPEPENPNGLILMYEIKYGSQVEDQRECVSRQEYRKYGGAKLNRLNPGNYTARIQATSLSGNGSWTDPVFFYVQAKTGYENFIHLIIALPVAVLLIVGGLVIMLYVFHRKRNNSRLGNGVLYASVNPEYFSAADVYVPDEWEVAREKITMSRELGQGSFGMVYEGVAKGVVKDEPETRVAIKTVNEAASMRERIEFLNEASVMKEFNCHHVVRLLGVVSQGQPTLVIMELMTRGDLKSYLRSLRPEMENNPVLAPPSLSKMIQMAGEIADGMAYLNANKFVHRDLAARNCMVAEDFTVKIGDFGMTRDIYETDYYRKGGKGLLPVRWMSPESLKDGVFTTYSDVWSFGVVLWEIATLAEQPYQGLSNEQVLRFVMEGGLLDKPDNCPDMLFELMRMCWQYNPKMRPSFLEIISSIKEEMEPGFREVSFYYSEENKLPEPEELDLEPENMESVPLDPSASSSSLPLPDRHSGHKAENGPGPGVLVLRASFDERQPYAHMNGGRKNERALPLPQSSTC

For orientation: IC50 means the concentration that inhibits the measured activity by half. As for SFYSCLESLVNGGAERSDGQWEGCR (modifications not checked) [F113], the IC50 in assay [1] is 560 nM.

What is called Kd is the equilibrium constant for the complex coming apart. A high value points to a looser complex. Molecule SFYSCLESLVNAPAEKSRGQWEGCRK (D-Ala (printed 'a' in SLVNaPAE; 'a being D-Ala')) [F297] displayed a Kd in assay [2] of 51 nM. Further, the IC50 was found to be 8.7 nM in assay [3] and 51 nM in assay [4].

For the origin of these results see US20110039779A1, “IGF-1R BINDING PROTEINS AND ANTAGONISTS” (priority 2007, published 2011).
